Biological target: CB1 receptor (Mus musculus, UniProt P47746)
Test: [3H]CP55,940 displacement binding in mouse cerebellar membranes
Parameters: species or system ICR mice
Conditions: read-out: CB1 Binding Affinity (Ki in nM); male mice, cerebellum; N = 4 / value

The chains behind the UniProt entries cited, without tags or fusion partners.
UniProt P47746, whole entry: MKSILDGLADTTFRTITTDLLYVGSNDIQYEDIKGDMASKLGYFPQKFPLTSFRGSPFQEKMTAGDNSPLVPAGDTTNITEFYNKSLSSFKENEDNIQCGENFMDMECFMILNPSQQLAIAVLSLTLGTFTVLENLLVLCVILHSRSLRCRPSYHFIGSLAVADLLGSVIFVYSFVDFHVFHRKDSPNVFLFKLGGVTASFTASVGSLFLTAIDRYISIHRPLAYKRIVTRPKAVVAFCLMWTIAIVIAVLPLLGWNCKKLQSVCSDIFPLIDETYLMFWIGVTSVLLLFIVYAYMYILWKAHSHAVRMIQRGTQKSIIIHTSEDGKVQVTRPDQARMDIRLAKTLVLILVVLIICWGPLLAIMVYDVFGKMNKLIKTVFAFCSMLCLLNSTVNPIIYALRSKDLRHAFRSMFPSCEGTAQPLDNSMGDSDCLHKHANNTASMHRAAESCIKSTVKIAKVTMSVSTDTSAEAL

`CCCCCc1cc(O)c2c(c1)OC(C)(C)[C@@H]1CCC(C)=C[C@@H]21` [THC, Δ^9-tetrahydrocanabinol] showed a Ki of 41.3 nM.
